Results from patent US20260167693A1 (ANGELES THERAPEUTICS, published 2026).

T1: CD19-ECD-GGSG-NLuc-AcV5 (human)
T1 construct: also called CD19-GGSG-NLuc-AcV5; Flag-CD19-GGSG-NLuc-AcV5
T1 chain: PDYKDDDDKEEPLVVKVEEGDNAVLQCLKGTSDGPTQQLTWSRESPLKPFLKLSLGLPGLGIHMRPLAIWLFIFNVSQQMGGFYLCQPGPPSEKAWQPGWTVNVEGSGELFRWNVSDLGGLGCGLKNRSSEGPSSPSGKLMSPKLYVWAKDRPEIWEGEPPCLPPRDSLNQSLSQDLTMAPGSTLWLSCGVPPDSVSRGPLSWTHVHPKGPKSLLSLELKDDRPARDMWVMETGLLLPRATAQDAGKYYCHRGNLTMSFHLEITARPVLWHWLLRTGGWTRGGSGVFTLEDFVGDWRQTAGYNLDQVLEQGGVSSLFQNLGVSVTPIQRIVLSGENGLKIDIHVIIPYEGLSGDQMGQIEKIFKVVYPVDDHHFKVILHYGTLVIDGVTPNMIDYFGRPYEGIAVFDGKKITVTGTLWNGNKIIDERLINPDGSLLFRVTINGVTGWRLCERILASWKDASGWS


Columns and labels:
CD19-ECD-GGSG-NLuc-AcV5 [1] = biological target: T1, CD19-ECD-GGSG-NLuc-AcV5; test: NLuc binding assay, SIR on Jurkat-NFAT-Luc cells; parental Jurkats 1515
CD19-ECD-GGSG-NLuc-AcV5 [2] = biological target: T1, CD19-ECD-GGSG-NLuc-AcV5; test: NLuc binding assay, SIR on primary human T cells

| NLuc value (CD19-ECD-GGSG-NLuc-AcV5 [1]) | mean NLuc value (CD19-ECD-GGSG-NLuc-AcV5 [2]) | Binder |
| --- | --- | --- |
| 179 | – | CD8SP-MPL-161-vL-V5-[hTCRb-S57C-opt1]-F-P2A-MPL-161-vH-Myc-[hTCRa-T48C-opt1]-F-F2A-PAC (040315-U02)[SEQ ID NO:1112] (other, MPL SIR used as control; Polyprotein PRT 3347) TCR beta: DIQMTQSSSSFSVSLGDRVTITCMASEDIYIRLAWYQQKPGNAPRLLISAATSLETGVPSRFSGSGSGKDYTLSITSLQTEDVGTYYCQQYWSSPWTFGGGTKLEINGKPIPNPLLGLDSTGSGEDLKNVFPPEVAVFEPSEAEISHTQKATLVCLATGFYPDHVELSWWVNGKEVHSGVCTDPQPLKEQPALNDSRYCLSSRLRVSATFWQNPRNHFRCQVQFYGLSENDEWTQDRAKPVTQIVSAEAWGRADCGFTSESYQQGVLSATILYEILLGKATLYAVLVSALVLMAMVKRKDSRG TCR alpha: DVQLQESGPGLVKPSQSLSLTCTVTGYSITSDYTWNWIRQFPGNKLEWMGYITYSGSTSYNPSLKSRNSITRDTSKNQFFLQLNSVTTEDTATYYCARLGRRYTMDYWGQGTSVTVSSEQKLISEEDGSGPDPAVYQLRDSKSSDKSVCLFTDFDSQTNVSQSKDSDVYITDKCVLDMRSMDFKSNSAVAWSNKSDFACANAFNNSIIPEDTFFPSPESSCDVKLVEKSFETDTNLNFQNLSVIGFRILLLKVAGFNLLMTLRLWSS |
| 27600 | 29300 | CD8SP-V5-[hTCRb-KACIAH]-F-P2A-CD8SP-FMC63-vL-Gly-Ser-Linker-FMC63-vH-Myc-[hTCRa-CSDVP]-F-F2A-PAC (082815-G07)[SEQ ID NO:1620] (other, scFv on TCRa, empty TCRb; Polyprotein PRT 3855) TCR beta: GKPIPNPLLGLDSTGSGEDLKNVFPPEVAVFEPSKAEIAHTQKATLVCLATGFYPDHVELSWWVNGKEVHSGVCTDPQPLKEQPALNDSRYCLSSRLRVSATFWQNPRNHFRCQVQFYGLSENDEWTQDRAKPVTQIVSAEAWGRADCGITSASYHQGVLSATILYEILLGKATLYAVLVSALVLMAMVKRKDSRG TCR alpha: DIQMTQTTSSLSASLGDRVTISCRASQDISKYLNWYQQKPDGTVKLLIYHTSRLHSGVPSRFSGSGSGTDYSLTISNLEQEDIATYFCQQGNTLPYTFGGGTKLEITGGGGSGGGGSGGGGSEVKLQESGPGLVAPSQSLSVTCTVSGVSLPDYGVSWIRQPPRKGLEWLGVIWGSETTYYNSALKSRLTIIKDNSKSQVFLKMNSLQTDDTAIYYCAKHYYYGGSYAMDYWGQGTSVTVSSEQKLISEEDGSGIQNPDPAVYQLRDSKSSDKSVCLFTDFDSQTNVSQSKDSDVYITDKCVLDMRSMDFKSNSAVAWSNKSDFACANAFNNSIIPEDTFFPSSDVPCDVKLVEKSFETDTNLNFQNLSVIGFRILLLKVAGFNLLMTLRLWSS |
| 10300 | 4670 | CD8SP-V5-[hTCRb-KACIAH]-F-P2A-CD8SP-CD19Bu12-vL-Gly-Ser-Linker-CD19Bu12-vH-Myc-[hTCRa-CSDVP]-F-F2A-PAC (082815-E05)[SEQ ID NO:1622] (other, Polyprotein PRT 3857) TCR beta: GKPIPNPLLGLDSTGSGEDLKNVFPPEVAVFEPSKAEIAHTQKATLVCLATGFYPDHVELSWWVNGKEVHSGVCTDPQPLKEQPALNDSRYCLSSRLRVSATFWQNPRNHFRCQVQFYGLSENDEWTQDRAKPVTQIVSAEAWGRADCGITSASYHQGVLSATILYEILLGKATLYAVLVSALVLMAMVKRKDSRG TCR alpha: EIVLTQSPATLSLSPGERATLSCSASSSVSYMHWYQQKPGQAPRLLIYDTSKLASGIPARFSGSGSGTDFTLTISSLEPEDVAVYYCFQGSVYPFTFGQGTKLEIKRGGGGSGGGGSGGGGSQVQLQESGPGLVKPSQTLSLTCTVSGGSISTSGMGVGWIRQHPGKGLEWIGHIWWDDDKRYNPALKSRVTISVDTSKNQFSLKLSSVTAADTAVYYCARMELWSYYFDYWGQGTLVTVSSEQKLISEEDGSGIQNPDPAVYQLRDSKSSDKSVCLFTDFDSQTNVSQSKDSDVYITDKCVLDMRSMDFKSNSAVAWSNKSDFACANAFNNSIIPEDTFFPSSDVPCDVKLVEKSFETDTNLNFQNLSVIGFRILLLKVAGFNLLMTLRLWSS |
